From patent US20090099157A1, “TETRAHYDRO-PYRAZOLO-PYRIDINE THIOETHER MODULATORS OF CATHEPSIN S” (priority 2007, published 2009)

Chains of the proteins cited; added tags and fusions are not shown. Residues count along the entry.
UniProt P25774, 115-331: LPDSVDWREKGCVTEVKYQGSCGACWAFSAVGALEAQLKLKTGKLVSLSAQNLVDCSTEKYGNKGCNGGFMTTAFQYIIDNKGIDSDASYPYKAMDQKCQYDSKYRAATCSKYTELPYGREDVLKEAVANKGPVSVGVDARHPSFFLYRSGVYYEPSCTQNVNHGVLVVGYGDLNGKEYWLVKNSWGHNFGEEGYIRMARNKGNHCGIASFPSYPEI

Biological target: Recombinant human cathepsin S (CatS) (Homo sapiens, UniProt P25774)
Test: biochemical

IC50 [nM] | SMILES
230 | N#Cc1ccccc1N1CCN(CC(O)Cn2nc(-c3ccc(C(F)(F)F)c(SCCN4CCCCC4)c3)c3c2CCNC3)CC1 (stereo not shown) [Example 431, 2-{4-[2-Hydroxy-3-(3-{3-[(2-piperidin-1-ylethyl)sulfanyl]-4-(trifluoromethyl)phenyl}-4,5,6,7-tetrahydro-1H-pyrazolo[4,3-c]pyridin-1-yl)propyl]piperazin-1-yl}benzonitrile]
380 | CS(=O)(=O)N1CCc2c(c(-c3ccc(C(F)(F)F)c(SCCN4CCCCC4)c3)nn2CCCN2CCCCC2)C1 [Example 54, 5-Methanesulfonyl-3-[3-(2-piperidin-1-yl-ethylsulfanyl)-4-trifluoromethyl-phenyl]-1-(3-piperidin-1-yl-propyl)-4,5,6,7-tetrahydro-1H-pyrazolo[4,3-c]pyridine]
9030 | CN1CCc2c(c(-c3ccc(C(F)(F)F)c(SCCN4CCC(F)CC4)c3)nn2CC(O)CN2CCCCC2)C1 (stereo not shown) [Example 303, 1-{3-[3-{[2-(4-Fluoropiperidin-1-yl)ethyl]sulfanyl}-4-(trifluoromethyl)phenyl]-5-methyl-4,5,6,7-tetrahydro-1H-pyrazolo[4,3-c]pyridin-1-yl}-3-piperidin-1-ylpropan-2-ol]
70 | CS(=O)(=O)N1CCc2c(c(-c3ccc(C(F)(F)F)c(SCCN4CCC(F)(F)C4)c3)nn2CC(O)CN2CCN(c3cnccn3)CC2)C1 (stereo not shown) [Example 759, 1-{3-[3-{[2-(3,3-Difluoropyrrolidin-1-yl)ethyl]sulfanyl}-4-(trifluoromethyl)phenyl]-5-(methylsulfonyl)-4,5,6,7-tetrahydro-1H-pyrazolo[4,3-c]pyridin-1-yl}-3-(4-pyrazin-2-ylpiperazin-1-yl)propan-2-ol]
30 | CS(=O)(=O)N1CCc2c(c(-c3ccc(C(F)(F)F)c(SCCN4CCC(F)CC4)c3)nn2C[C@H](O)CN2CCN(c3ccccc3O)CC2)C1 [Example 795, 2-{4-[(2R)-3-{3-[3-{[2-(4-Fluoropiperidin-1-yl)ethyl]sulfanyl}-4-(trifluoromethyl)phenyl]-5-(methylsulfonyl)-4,5,6,7-tetrahydro-1H-pyrazolo[4,3-c]pyridin-1-yl}-2-hydroxypropyl]piperazin-1-yl}phenol]
4970 | CN(CCSc1cc(-c2nn(CCCN3CCCCC3)c3c2CN(S(C)(=O)=O)CC3)ccc1C(F)(F)F)Cc1ccccc1 [Example 415, N-Methyl-2-({5-[5-(methylsulfonyl)-1-(3-piperidin-1-ylpropyl)-4,5,6,7-tetrahydro-1H-pyrazolo[4,3-c]pyridin-3-yl]-2-(trifluoromethyl)phenyl}sulfanyl)-N-(phenylmethyl)ethanamine]
20 | Cc1noc(C2CCN(CC(O)Cn3nc(-c4ccc(C(F)(F)F)c(SCC(=O)N5CCOCC5)c4)c4c3CCN(S(C)(=O)=O)C4)CC2)n1 (stereo not shown) [Example 747, 1-[4-(3-Methyl-1,2,4-oxadiazol-5-yl)piperidin-1-yl]-3-[5-(methylsulfonyl)-3-{3-[(2-morpholin-4-yl-2-oxoethyl)sulfanyl]-4-(trifluoromethyl)phenyl}-4,5,6,7-tetrahydro-1H-pyrazolo[4,3-c]pyridin-1-yl]propan-2-ol]
1250 | CS(=O)(=O)N1CCc2c(c(-c3ccc(Cl)c(SCc4ccco4)c3)nn2CCCN2CCOCC2)C1 [Example 131, 3-[4-Chloro-3-(furan-2-ylmethylsulfanyl)-phenyl]-5-methanesulfonyl-1-(3-morpholin-4-yl-propyl)-4,5,6,7-tetrahydro-1H-pyrazolo[4,3-c]pyridine]
80 | CS(=O)(=O)N1CCc2c(c(-c3ccc(C(F)(F)F)c(SCC(=O)N4CCCCC4)c3)nn2CC(O)CN2CCC(N3CCOCC3)CC2)C1 (stereo not shown) [Example 264, 1-[5-(Methylsulfonyl)-3-{3-[(2-oxo-2-piperidin-1-ylethyl)sulfanyl]-4-(trifluoromethyl)phenyl}-4,5,6,7-tetrahydro-1H-pyrazolo[4,3-c]pyridin-1-yl]-3-(4-morpholin-4-ylpiperidin-1-yl)propan-2-ol]
200 | CS(=O)(=O)N1CCc2c(c(-c3ccc(C(F)(F)F)c(SCCN4CCC(O)CC4)c3)nn2CC(O)CN2CCC(Oc3ncccn3)CC2)C1 (stereo not shown) [Example 786, 1-[2-({5-[1-{2-Hydroxy-3-[4-(pyrimidin-2-yloxy)piperidin-1-yl]propyl}-5-(methylsulfonyl)-4,5,6,7-tetrahydro-1H-pyrazolo[4,3-c]pyridin-3-yl]-2-(trifluoromethyl)phenyl}sulfanyl)ethyl]piperidin-4-ol]
240 | CS(=O)(=O)N1CCc2c(c(-c3ccc(C(F)(F)F)c(SCCN4CCCCC4)c3)nn2CCCN2CCC(N3CC(O)CC3=O)CC2)C1 (stereo not shown) [Example 679, 4-Hydroxy-1-(1-{3-[5-(methylsulfonyl)-3-{3-[(2-piperidin-1-ylethyl)sulfanyl]-4-(trifluoromethyl)phenyl}-4,5,6,7-tetrahydro-1H-pyrazolo[4,3-c]pyridin-1-yl]propyl}piperidin-4-yl)pyrrolidin-2-one]
270 | CS(=O)(=O)N1CCc2c(c(-c3ccc(C(F)(F)F)c(SCCN4CCOCC4)c3)nn2CC(O)CN2CCC(N3CCOCC3)CC2)C1 (stereo not shown) [Example 691, 1-[5-(Methylsulfonyl)-3-{3-[(2-morpholin-4-ylethyl)sulfanyl]-4-(trifluoromethyl)phenyl}-4,5,6,7-tetrahydro-1H-pyrazolo[4,3-c]pyridin-1-yl]-3-(4-morpholin-4-ylpiperidin-1-yl)propan-2-ol]
490 | CS(=O)(=O)N1CCc2c(c(-c3ccc(C(F)(F)F)c(SCC(=O)N4CCC(N5CCCCC5)CC4)c3)nn2CCCN2CCC(N3CCCC3=O)CC2)C1 [Example 89, 1-[1-(3-{3-[3-(2-[1,4′]Bipiperidinyl-1′-yl-2-oxo-ethylsulfanyl)-4-trifluoromethyl-phenyl]-5-methanesulfonyl-4,5,6,7-tetrahydro-pyrazolo[4,3-c]pyridin-1-yl}-propyl)-piperidin-4-yl]-pyrrolidin-2-one]
150 | CS(=O)(=O)NC1CCN(CC(O)Cn2nc(-c3ccc(C(F)(F)F)c(SCCN4CCCC(O)C4)c3)c3c2CCN(C(=O)CO)C3)CC1 (stereo not shown) [Example 700, N-[1-(2-Hydroxy-3-{5-(hydroxyacetyl)-3-[3-{[2-(3-hydroxypiperidin-1-yl)ethyl]sulfanyl}-4-(trifluoromethyl)phenyl]-4,5,6,7-tetrahydro-1H-pyrazolo[4,3-c]pyridin-1-yl}propyl)piperidin-4-yl]methanesulfonamide]
2250 | CS(=O)(=O)N1CCc2c(c(-c3ccc(C(F)(F)F)c(SCC(=O)Nc4cccc5c4Cc4ccccc4-5)c3)nn2CC(O)CN2CCC(N3CCCC3=O)CC2)C1 (stereo not shown) [Example 71, N-(9H-Fluoren-1-yl)-2-[5-(1-{2-hydroxy-3-[4-(2-oxo-pyrrolidin-1-yl)-piperidin-1-yl]-propyl}-5-methanesulfonyl-4,5,6,7-tetrahydro-1H-pyrazolo[4,3-c]pyridin-3-yl)-2-trifluoromethyl-phenylsulfanyl]-acetamide]
1360 | O=C(CO)NC1CCN(C[C@H](O)Cn2nc(-c3ccc(C(F)(F)F)c(SCCN4CCC(F)CC4)c3)c3c2CCNC3)CC1 [Example 375, N-{1-[(2S)-3-{3-[3-{[2-(4-Fluoropiperidin-1-yl)ethyl]sulfanyl}-4-(trifluoromethyl)phenyl]-4,5,6,7-tetrahydro-1H-pyrazolo[4,3-c]pyridin-1-yl}-2-hydroxypropyl]piperidin-4-yl}-2-hydroxyacetamide]
7140 | CS(=O)(=O)N1CCc2c(c(-c3ccc(C(F)(F)F)c(SCCN4CCC(F)CC4)c3)nn2C[C@@H](O)CN2CCCCC2c2cccnc2)C1 (stereo partly drawn) [Example 735, (2S)-1-{3-[3-{[2-(4-Fluoropiperidin-1-yl)ethyl]sulfanyl}-4-(trifluoromethyl)phenyl]-5-(methylsulfonyl)-4,5,6,7-tetrahydro-1H-pyrazolo[4,3-c]pyridin-1-yl}-3-(2-pyridin-3-ylpiperidin-1-yl)propan-2-ol]
10 | N#Cc1ccccc1N1CCN(CC(O)Cn2nc(-c3ccc(C(F)(F)F)c(SCC(=O)N4CCOCC4)c3)c3c2CCN(C(=O)CO)C3)CC1 (stereo not shown) [Example 748, 2-(4-{2-Hydroxy-3-[5-(hydroxyacetyl)-3-{3-[(2-morpholin-4-yl-2-oxoethyl)sulfanyl]-4-(trifluoromethyl)phenyl}-4,5,6,7-tetrahydro-1H-pyrazolo[4,3-c]pyridin-1-yl]propyl}piperazin-1-yl)benzonitrile]
45 | CS(=O)(=O)N1CCc2c(c(-c3ccc(C(F)(F)F)c(SCCN4CCC(F)(F)CC4)c3)nn2C[C@@H](O)CN2CCC(NC(=O)CO)CC2)C1 [Example 780, N-{1-[(2S)-3-{3-[3-{[2-(4,4-Difluoropiperidin-1-yl)ethyl]sulfanyl}-4-(trifluoromethyl)phenyl]-5-(methylsulfonyl)-4,5,6,7-tetrahydro-1H-pyrazolo[4,3-c]pyridin-1-yl}-2-hydroxypropyl]piperidin-4-yl}-2-hydroxyacetamide]
510 | O[C@@H](CN1CCN(c2ccccc2)CC1)Cn1nc(-c2ccc(C(F)(F)F)c(SCCN3CCC(F)CC3)c2)c2c1CCNC2 [Example 402, (2S)-1-{3-[3-{[2-(4-Fluoropiperidin-1-yl)ethyl]sulfanyl}-4-(trifluoromethyl)phenyl]-4,5,6,7-tetrahydro-1H-pyrazolo[4,3-c]pyridin-1-yl}-3-(4-phenylpiperazin-1-yl)propan-2-ol]
200 | CC(C)(C)OC(=O)NCC(=O)NCCSc1cc(-c2nn(CC(O)CN3CCC(N4CCCC4=O)CC3)c3c2CN(S(C)(=O)=O)CC3)ccc1C(F)(F)F (stereo not shown) [Example 117, ({2-[5-(1-{2-Hydroxy-3-[4-(2-oxo-pyrrolidin-1-yl)-piperidin-1-yl]-propyl}-5-methanesulfonyl-4,5,6,7-tetrahydro-1H-pyrazolo[4,3-c]pyridin-3-yl)-2-trifluoromethyl-phenylsulfanyl]-ethylcarbamoyl}-methyl)-carbamic acid tert-butyl ester]
620 | CC(C)(O)C(=O)N1CCc2c(c(-c3ccc(C(F)(F)F)c(SCCN4CCC(F)CC4)c3)nn2CC(O)CN2CCCCC2)C1 (stereo not shown) [Example 437, 1-{3-[3-{[2-(4-Fluoropiperidin-1-yl)ethyl]sulfanyl}-4-(trifluoromethyl)phenyl]-1-(2-hydroxy-3-piperidin-1-ylpropyl)-1,4,6,7-tetrahydro-5H-pyrazolo[4,3-c]pyridin-5-yl}-2-methyl-1-oxopropan-2-ol]
